Source: US7514582B2, “2′-substituted 1,1′-biphenyl-2-carboxamides, processes for their preparation, their use as medicaments, and pharmaceutical preparations comprising them” (Sanofi-Aventis Deutschland GmbH, priority 1999, dated 2009)

Protein sequences, listed by entry. Tags and fused reporters are not part of them.
UniProt P22460, whole entry: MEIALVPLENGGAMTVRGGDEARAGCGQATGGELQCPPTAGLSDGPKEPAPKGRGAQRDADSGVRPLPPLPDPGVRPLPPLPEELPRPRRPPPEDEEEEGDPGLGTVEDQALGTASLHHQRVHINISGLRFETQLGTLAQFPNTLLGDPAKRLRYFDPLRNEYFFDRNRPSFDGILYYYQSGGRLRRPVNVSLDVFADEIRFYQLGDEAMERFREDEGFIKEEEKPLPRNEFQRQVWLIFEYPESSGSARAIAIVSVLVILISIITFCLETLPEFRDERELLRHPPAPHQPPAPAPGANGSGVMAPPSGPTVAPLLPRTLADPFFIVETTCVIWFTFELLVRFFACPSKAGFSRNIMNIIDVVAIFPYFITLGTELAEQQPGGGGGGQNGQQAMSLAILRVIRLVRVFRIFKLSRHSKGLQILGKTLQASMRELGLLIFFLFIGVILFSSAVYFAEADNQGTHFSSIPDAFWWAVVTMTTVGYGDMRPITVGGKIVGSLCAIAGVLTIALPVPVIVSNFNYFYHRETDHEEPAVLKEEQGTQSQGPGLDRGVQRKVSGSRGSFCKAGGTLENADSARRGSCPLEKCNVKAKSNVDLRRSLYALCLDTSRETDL

molecular target: T1, Kv1.5 channels from humans (Homo sapiens, UniProt P22460); assay: Kv1.5 currents in Xenopus oocytes, two-microelectrode voltage clamp; format: cell-based
T1 construct: expressed in transfected cells; host or cells: Xenopus laevis oocytes injected with in vitro synthesized RNA
Method: Kv1.5 channels from humans were expressed in Xenopus oocytes. For this, oocytes from Xenopus laevis were first isolated and defolliculated. RNA encoding Kv1.5 synthesized in vitro was then injected into these oocytes. After Kv1.5 protein expression for 1-7days, Kv1.5 currents were measured on the oocytes using the two-microelectrode voltage clamp technique. The Kv1.5 channels were in this case as a rule activated using voltage jumps to 0 mV and 40 mV lasting 500 ms. The bath was rinsed with a solution of the following composition: NaCl 96 mM, KCl 2 mM, CaCl2 1.8 mM, MgCl2 1 mM, HEPES 5 mM (titrated with NaOH to pH 7.4). These experiments were carried out at room temperature. The following were employed for data acquisition and analysis: Genedamp amplifier (Axon Instruments, Foster City, USA) and MacLab D/A converter and software (AD Instruments, Castle Hill, Australia). The substances according to the invention were tested by adding them in different concentrations to the bath solution. The effects of the substances were calculated as the percentage inhibition of the Kv1.5 control current which was obtained when no substance was added to the solution. The data were then extrapolated using the Hill equation in order to determine the inhibitory concentration IC50 for the respective substances.

Row | SMILES | IC50
1 | C[C@H](OC(=O)NCc1ccccc1-c1ccccc1C(=O)NCCc1ccccn1)c1ccccc1 [1 j] | 200 nM
2 | C[C@@H](OC(=O)NCc1ccccc1-c1ccccc1C(=O)NCCc1ccccn1)c1ccccc1 [1 k] | 2400 nM
3 | O=C(NCc1ccccc1-c1ccccc1C(=O)NCCc1ccccn1)OCc1ccccc1 [2 c] | 700 nM
4 | COC(=O)NCc1ccccc1-c1ccccc1C(=O)NCCC(C)C [2 f] | 7100 nM
5 | CC(C)CCNC(=O)c1ccccc1-c1ccccc1CNC(=O)c1ccccc1 [4 a] | 4100 nM
6 | COc1ccc(CC(=O)NCc2ccccc2-c2ccccc2C(=O)NCc2ccc(F)cc2F)cc1 [4 c] | 1400 nM
7 | COc1ccc(CC(=O)NCc2ccccc2-c2ccccc2C(=O)NCCc2cccnc2)cc1 [4 i] | 4700 nM
